In ChEMBL document CHEMBL4052822, “Design and Synthesis of Orally Bioavailable Piperazine Substituted 4(1H)-Quinolones with Potent Antimalarial Activity: Structure-Activity and Structure-Property Relationship Studies” (J Med Chem, 2018):

Key:
[1] = Resistance index, ratio of EC50 for mefloquine/chloroquine/atovaquone/pyrimethamine-resistant Plasmodium falciparum TM90-C2B to EC50 for pyrimethamine/chloroquine-resistant Plasmodium falciparum W2; assay type: functional
Method in brief: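 Ring-stage cultures (>70% rings) were set at 0.5–0.7% parasitemia and 1.5% hematocrit under 90% N2/5% O2/5% CO2 at 37 °C. Label was added at 48 h and plates harvested at 72 h. Compounds were tested in duplicate over 11 concentrations, with EC50 from nonlinear regression.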

Plasmodium berghei [2] = experiment: animal or person; settings: in Mus musculus, po, read-out: INH
Plasmodium berghei [3] = experiment: Antimalarial activity against liver stage form of luciferase transfected Plasmodium berghei sporozoites infected in mouse assessed as inhibition of parasitemia at 50 mg/kg administered via oral gavage 1 hr post infection measured on day 9 by bioluminescence method relative to control; assay type: functional
Plasmodium berghei [4] = experiment: animal or person; settings: in Mus musculus, po, read-out: INH; remark: listed apart in the source
Plasmodium berghei [5] = experiment: Antimalarial activity against liver stage form of luciferase transfected Plasmodium berghei sporozoites infected in mouse assessed as inhibition of parasitemia at 100 mg/kg administered via oral gavage 1 hr post infection measured on day 9 by bioluminescence method relative to control; assay type: functional

Structure (SMILES) | Ratio EC50 [1] | inhibition in vivo at 50 mg/kg (Plasmodium berghei [2]) [%] | other results
COC(=O)c1c[nH]c2cc(CN3CCN(c4ccc(OC)cc4)CC3)c(OC)cc2c1=O | 253 | 100 | –
COC(=O)c1c[nH]c2cc(CN3CCN(c4ccc(F)cc4)CC3)c(OC)cc2c1=O | 122 | 100 | –
O=c1c(Cl)c[nH]c2cc(CN3CCN(c4ccc(F)cc4)CC3)ccc12 | – | 100 | –
COC(=O)c1c[nH]c2cc(CN3CCN(Cc4ccc(OC)cc4)CC3)ccc2c1=O | – | 69.2 | inhibition in vivo at 50 mg/kg (Plasmodium berghei [3]): 38.8%; inhibition in vivo at 50 mg/kg (Plasmodium berghei [4]): 41.2%; inhibition in vivo at 100 mg/kg (Plasmodium berghei [5]): 43.9%
COC(=O)c1c[nH]c2cc(CN3CCN(c4ccc(F)cc4)CC3)ccc2c1=O | – | – | inhibition in vivo at 50 mg/kg (Plasmodium berghei [4]): 98%
COC(=O)c1c[nH]c2cc(CN3CCN(c4ccc(OC)cc4)CC3)ccc2c1=O | – | 100 | –
COC(=O)c1c[nH]c2cc(CN3CCN(Cc4ccc5c(c4)OCO5)CC3)ccc2c1=O | – | 40 | –
COC(=O)c1c[nH]c2cc(CN3CCN(Cc4ccccc4)CC3)ccc2c1=O | 106 | 100 | –
COC(=O)c1c[nH]c2cc(CN3CCN(Cc4ccccc4)CC3)c(OC)cc2c1=O | – | 80 | –
COC(=O)c1c[nH]c2cc(CN3CCN(Cc4ccccc4)CC3)c(C)cc2c1=O | 614 | 100 | –
Cc1[nH]c2cc(CN3CCN(c4ccc(F)cc4)CC3)ccc2c(=O)c1Cl | – | 100 | –
COC(=O)c1c[nH]c2cc(CN3CCN(Cc4ccc(OC)cc4)CC3)c(C)cc2c1=O | 417 | 80 | –
COC(=O)c1c[nH]c2cc(CN3CCN(Cc4ccc(OC)cc4)CC3)c(OC)cc2c1=O | – | 100 | –
COC(=O)c1c[nH]c2cc(N3CCN(c4ccccc4)CC3)c(OC)cc2c1=O | – | 70 | –
COC(=O)c1c[nH]c2cc(CCN3CCN(Cc4ccc(OC)cc4)CC3)ccc2c1=O | > 167 | – | –
COC(=O)c1c[nH]c2cc(N3CCN(Cc4ccccc4)CC3)ccc2c1=O | – | – | inhibition in vivo at 50 mg/kg (Plasmodium berghei [4]): 43.1%
COC(=O)c1c[nH]c2cc(CN3CCN(c4ccc(OC)cc4)CC3)c(C)cc2c1=O | 316 | 100 | –
COC(=O)c1c[nH]c2cc(N3CCN(c4ccccc4)CC3)ccc2c1=O | – | 38.5 | –
COC(=O)c1c[nH]c2cc(N3CCN(c4ccccc4)CC3)c(C)cc2c1=O | 24 | 80 | –
COC(=O)c1c[nH]c2cc(N3CCN(Cc4ccccc4)CC3)c(OC)cc2c1=O | – | 100 | –
COC(=O)c1c[nH]c2cc(CN3CCN(c4ccccc4)CC3)c(OC)cc2c1=O | 306 | 100 | –
COC(=O)c1c[nH]c2ccc(CN3CCN(c4ccc(OC)cc4)CC3)cc2c1=O | – | 84.6 | –
COC(=O)c1c[nH]c2cc(CN3CCN(c4ccccc4)CC3)c(C)cc2c1=O | 345 | 46.2 | –
